# CycPeptMPDB entries from one study

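The data file gives no further conditions (lipid, pH, time, direction or concentration), and values from different papers need not be comparable. The list need not hold all peptides of the study. Entries at the database's floor value (log10 P of -10) are not listed.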

PAMPA is the parallel artificial membrane permeability assay, which has no cells and reads passive diffusion. RRCK is a low-efflux MDCK cell line. Permeability is given as log10 of P in cm/s; higher (less negative) is more permeable.

CC(C)C[C@@H]1NC(=O)[C@H](Cc2ccccc2)NC(=O)[C@H]2CCCN2C(=O)[C@H](CC(C)C)NC(=O)[C@H](C)NC(=O)[C@@H](C)NC1=O is reported with PAMPA -6.14 (log10 cm/s) and RRCK -5.58 (log10 cm/s). CC(C)C[C@@H]1NC(=O)[C@H](Cc2ccc(O)cc2)NC(=O)[C@H]2CCCN2C(=O)[C@H](CC2CCCCC2)NC(=O)[C@H](CC2CCCCC2)NC(=O)[C@@H](CC(C)C)NC1=O is reported with PAMPA -5.36 (log10 cm/s) and RRCK -5.96 (log10 cm/s). The entry for CCC[C@H]1NC(=O)[C@H](CC(C)C)NC(=O)[C@H](Cc2ccccc2)NC(=O)[C@H]2CCCN2C(=O)[C@H](CC2CCCCC2)NC(=O)[C@H](CC2CCCCC2)NC1=O lists PAMPA -5.53 (log10 cm/s) and RRCK -5.46 (log10 cm/s). For CC[C@@H]1C(=O)N(C)[C@@H](CC2CCCCC2)C(=O)N[C@@H](CC2CCCCC2)C(=O)N2CCC[C@@H]2C(=O)N(C)[C@@H](Cc2ccccc2)C(=O)N[C@@H](CC(C)C)C(=O)N1C the data give PAMPA -7.84 (log10 cm/s) and RRCK -6.02 (log10 cm/s). Listed for CC(C)C[C@@H]1NC(=O)[C@H](CC(C)C)N(C)C(=O)[C@@H](CC(C)C)N(C)C(=O)[C@H](CC(C)C)NC(=O)[C@H](Cc2ccccc2)N(C)C(=O)[C@@H](C)N(C)C1=O: PAMPA -6.34 (log10 cm/s) and RRCK -4.90 (log10 cm/s).

CC(C)C[C@@H]1NC(=O)[C@H](C)NC(=O)[C@H](Cc2ccc(O)cc2)N(C)C(=O)[C@H](Cc2ccccc2)NC(=O)CN(C)C(=O)[C@@H]2CCCN2C(=O)[C@@H](Cc2ccccc2)N(C)C1=O is reported with PAMPA -6.75 (log10 cm/s) and RRCK -6.23 (log10 cm/s). CC(C)C[C@@H]1NC(=O)[C@H](Cc2ccccc2)N(C)C(=O)[C@H]2CCCN2C(=O)[C@H](CC(C)C)NC(=O)[C@H](CC2CCCCC2)N(C)C(=O)[C@@H](CC(C)C)N(C)C1=O is reported with PAMPA -7.55 (log10 cm/s) and RRCK -5.79 (log10 cm/s). CC(C)C[C@@H]1NC(=O)[C@H](Cc2ccc(O)cc2)N(C)C(=O)[C@H]2CCCN2C(=O)[C@H](CC(C)C)NC(=O)[C@H](CC(C)C)N(C)C(=O)[C@@H](Cc2ccccc2)N(C)C1=O has PAMPA -5.80 (log10 cm/s) and RRCK -5.16 (log10 cm/s). For CC[C@H]1C(=O)N[C@@H](CC(C)C)C(=O)N2CCC[C@@H]2C(=O)N(C)[C@@H](Cc2ccc(O)cc2)C(=O)N[C@@H](CC(C)C)C(=O)N(C)[C@H](C)C(=O)N1C the data give PAMPA -5.38 (log10 cm/s) and RRCK -5.35 (log10 cm/s). The entry for CC(C)C[C@@H]1NC(=O)[C@H](Cc2ccccc2)N(C)C(=O)[C@H]2CCCN2C(=O)[C@H](CC2CCCCC2)NC(=O)[C@H](CC2CCCCC2)N(C)C(=O)[C@@H](C)N(C)C1=O lists PAMPA -7.31 (log10 cm/s) and RRCK -5.50 (log10 cm/s).

CC(C)C[C@@H]1NC(=O)[C@H](Cc2ccccc2)NC(=O)[C@H]2CCCN2C(=O)[C@H](CC2CCCCC2)NC(=O)[C@H](CC2CCCCC2)NC(=O)[C@@H](CC(C)C)NC1=O is reported with PAMPA -5.80 (log10 cm/s) and RRCK -5.64 (log10 cm/s). For CC(C)C[C@@H]1NC(=O)[C@H](Cc2ccc(O)cc2)N(C)C(=O)[C@H]2CCCN2C(=O)[C@H](CC(C)C)NC(=O)[C@H](CC(C)C)N(C)C(=O)[C@@H](C)N(C)C1=O the data give PAMPA -5.26 (log10 cm/s) and RRCK -4.92 (log10 cm/s). The entry for CC(C)C[C@@H]1NC(=O)[C@H](Cc2ccc(O)cc2)NC(=O)[C@H]2CCCN2C(=O)[C@H](CC2CCCCC2)NC(=O)[C@H](CC2CCCCC2)NC(=O)[C@@H](C)NC1=O lists PAMPA -5.08 (log10 cm/s) and RRCK -5.85 (log10 cm/s). The entry for CC(C)C[C@@H]1NC(=O)[C@H](CC2CCCCC2)N(C)C(=O)[C@H]2CCCN2C(=O)[C@H](CC(C)C)NC(=O)[C@H](CC(C)C)N(C)C(=O)[C@@H](CC(C)C)N(C)C1=O lists PAMPA -7.02 (log10 cm/s) and RRCK -5.61 (log10 cm/s). Listed for CC[C@H]1NC(=O)[C@H](CC(C)C)NC(=O)[C@H](Cc2ccc(O)cc2)NC(=O)[C@H]2CCCN2C(=O)[C@H](CC(C)C)NC(=O)[C@H](CC(C)C)NC1=O: PAMPA -6.26 (log10 cm/s) and RRCK -6.04 (log10 cm/s).

A selection of 2 entries from above:

{"smiles": "CC(C)C[C@@H]1NC(=O)[C@H](Cc2ccc(O)cc2)NC(=O)[C@H]2CCCN2C(=O)[C@H](CC2CCCCC2)NC(=O)[C@H](CC2CCCCC2)NC(=O)[C@@H](C)NC1=O", "PAMPA (log10 cm/s)": "-5.08", "RRCK (log10 cm/s)": "-5.85"}
{"smiles": "CC(C)C[C@@H]1NC(=O)[C@H](C)NC(=O)[C@H](Cc2ccc(O)cc2)N(C)C(=O)[C@H](Cc2ccccc2)NC(=O)CN(C)C(=O)[C@@H]2CCCN2C(=O)[C@@H](Cc2ccccc2)N(C)C1=O", "PAMPA (log10 cm/s)": "-6.75", "RRCK (log10 cm/s)": "-6.23"}

Data: CycPeptMPDB; original report Naylor et al. 2018, doi:10.1021/acs.jmedchem.8b01259.